Bioassay records: PubChem, National Center for Advancing Translational Sciences (NCATS)
Most compounds without a hit are left out; they make up all but 13% or so of the library.
Sfp PPTase inh: Sfp phosphopantetheinyl transferase inhibition. Q9F4F7. Biochemical Sfp PPTase activity, qHTS. Potency, µM, most hits filed as inhibitors. actives 3.5% (n = 310,000). AID 1490;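 also: the enzyme is Sfp with the accession as filed and its product quenches rhodamine fluorescence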
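After 15 min at room temperature with compound, 15 nM Sfp received 5 uM rhodamine-CoA plus 12.5 uM BHQ-2-ybbR (50 mM Hepes pH 7.6, 10 mM MgCl2). Rate came from the fluorescence difference over 30 min, ex 525/em 598 nm.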
ALDH1A1 inh: ALDH1A1 (human) enzyme inhibition; Purified ALDH1A1, NADH fluorescence, propionaldehyde substrate; Potency, µM (highest dose often 75.3 µM), most hits filed as inhibitors; actives 7.3% (n = 220,000); AID 1030; active = well fitted inhibition curve with a large enough effect, not every such curve was filed as active; inconclusive = small, poorly fitted or top-dose-only effect, or another doubt; inactive = no such curve, though single readings can be large or run the other way
G9a block: blocks human histone lysine methyltransferase G9a; G9a H3K9 monomethylation, AlphaScreen, 2 h; Potency, µM (series often up to 102 µM), most hits filed as inhibitors; actives 8.8% (n = 350,000); also: nearly all actives have a fitted effect of over 75% in size
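AlphaScreen detection with an anti-monomethyl H3K9 antibody quantified product after a 2 h room-temperature reaction containing 500 nM biotinylated H3K9 peptide, 20 µM SAM and 20 nM enzyme, which had been preincubated 15 min with compound.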
KDM4E inh: inhibitors of human JMJD2E histone demethylase; actives 1.6% (n = 230,000); B2RXH2; Potency, µM (doses to about 57.1 µM), most hits filed as inhibitors; JMJD2E catalytic domain, FDH-coupled NADH fluorescence (FDH is formaldehyde dehydrogenase); also: nearly all actives have a fitted effect of over 50% in size
miR-21 reporter: raises the signal of a miR-21 reporter | Potency, µM (highest dose often 38.3 µM) | HeLa miR-21 FLuc reporter, luciferase, 48 h | 340,000 tested, under 10 active; active = well fitted rising curve with a large enough effect; inconclusive = small, poorly fitted or top-dose-only effect; inactive = no such curve, though single readings can be large or run the other way;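 further: miR-21 action dims this reporter so a rising signal means less miR-21 action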
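HeLa miR-21-FLuc reporter line, endogenous miR-21; 2000 cells/well in DMEM/10% FBS; compound titration up to ~40uM final, 48 h, 37 degree Celsius; luciferase detection reagent, 15 min lysis, CCD luminescence.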
Lamin A splicing: LMNA splicing modulation | HeLa LMNA splicing GFP/RFP minigene ratio, 48 h | Potency, µM (doses to about 46.1 µM), most hits filed as inhibitors | actives 0.01% (n = 200,000) | AID 1487; active = well fitted inhibition curve with a large enough effect in the signal ratio, with a control signal flat, not every such curve was filed as active; inconclusive = small, poorly fitted or top-dose-only effect, or effect the other way, or a change in a side signal; the % refers to the signal ratio
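S3 HeLa cells stably expressing lamin A-EGFP splicing minigene plus DsRed2, 600 cells/well, 48 h compound exposure at 37C. Laser-scanning cytometry; analysed as GFP (500-530 nm)/RFP (575-640 nm) total intensity ratio; 0.5% DMSO vehicle.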
A number is an active result; - = inactive; ? = inconclusive; . = not tested or not shown; [ ] = remark or other dose. Unless noted, calls follow the shape of the dose curve; as a rule, active = well fitted curve in the direction sought with a large enough effect; inconclusive = small, poorly fitted or top-dose-only effect, or another doubt; inactive = no such curve, though single readings can be large; an effect the other way counts as inactive or inconclusive.

SMILES	Sfp PPTase inh	ALDH1A1 inh	G9a block	KDM4E inh	miR-21 reporter	Lamin A splicing
CC(Nc1ccccc1N1CCCCC1)C(=O)N1CCc2ccccc21 (stereo not given)	-	-	39.8µM	-	-	.
O=C(Nc1ccccc1N1CCCC1)c1ccc([N+](=O)[O-])o1	-	.	-[12.7 µM]	.	-	.
O=C(Nc1ccc(N2CCCCC2)cc1)c1ccc([N+](=O)[O-])o1	-	.	39.8µM	.	-	.
O=C(Nc1ccc(N2CCCC2)c(Cl)c1)c1ccc([N+](=O)[O-])o1	-	3.55µM	25.1µM	-	-	.
CC1CCN(c2ccc(NC(=O)c3ccc([N+](=O)[O-])o3)cc2)CC1	.	.	35.5µM	.	.	.
O=C(c1c[nH]c2ccccc12)C(F)(F)F	-	.	-	-	-	.
COC(=O)C1=C(CS(=O)(=O)c2ccc(C)cc2C)NC(=O)NC1c1ccc(C)cc1 (stereo not given)	.	.	-	.	-	.
CCOC(=O)N1CCN(S(=O)(=O)c2ccc(Cl)cc2)CC1	-	.	.	.	-	.
O=S(=O)(c1ccc(Cl)cc1)N1CCC(N2CCCCCC2)CC1	-	?	2.51µM	-	-	-
CC(=O)Nc1ccc(S(=O)(=O)N2CCC(N3CCCCCC3)CC2)cc1	-	.	39.8µM	.	-	.
CCOC(=O)N1CCC(N2CCN(S(=O)(=O)c3ccc(Cl)cc3)CC2)CC1	50.1µM	14.1µM	?	?	-	-
CC(=O)Nc1ccc(S(=O)(=O)N2CCC(N3CCCCC3)CC2)cc1	-	.	-	.	-	.
COc1ccc(-c2cn3nc(N4CCCC(C(=O)Nc5cc(Cl)ccc5OC)C4)sc3n2)cc1 (stereo not given)	.	.	-	.	-	-
Cc1ccc(NC(=S)N2CCn3cccc3C2c2cccnc2)cc1 (stereo not given)	-	-	44.7µM	-	-	-
CN(C(=O)c1ccc(Br)o1)C1(C)CCS(=O)(=O)C1 (stereo not given)	-	.	-	.	-	.
Cc1c(-c2ccc(Br)cc2)nc2ccccn12	-	-	44.7µM	?	-	-
CN(C)c1ccc(-c2nc3ccccn3c2/N=C/c2ccc(Br)cc2)cc1	-	?	10µM	-	-	?
Cc1ccc(-c2nc3ccccn3c2C=O)cc1	-	?	.	-	-	.
CCOC(=O)c1c(C)c(C(=O)NCc2ccc(Cl)cc2)c(C)n1CC	.	.	-	.	-	.
CN(C)c1nc(=NCc2ccco2)ss1	0.501µM	10µM	.	-	?	.
COc1ncc2ncc(=O)n(C3CC3)c2n1	-	?	-[0.501 µM]	.	.	-
CCCCC(=NCCc1c(C)[nH]c2ccc(OC)cc12)C1=C(O)CC(c2ccccc2)CC1=O (stereo not given)	-	-	-	25.1µM	-	.
CCC(=NCCc1c(C)[nH]c2ccc(OC(F)(F)F)cc12)C1=C(O)CC(c2ccccc2)CC1=O (stereo not given)	?	-	-	-	-	.
COc1ccc(NC(=O)CN(c2c(C)cccc2C)S(C)(=O)=O)cc1	-	.	-	.	-	.
CCn1c(SC)nnc1-c1nn(-c2ccccc2)ccc1=O	-	-	5.01µM	-	-	-
SMILES	Sfp PPTase inh	ALDH1A1 inh	G9a block	KDM4E inh	miR-21 reporter	Lamin A splicing
O=C(CN1C=NS(=O)(=O)c2ccccc21)Nc1ccc(F)cc1	.	.	-	.	-	-
COC(=O)c1ccc(N2C(=O)CC(N(C)CCc3ccc(OC)c(OC)c3)C2=O)cc1 (stereo not given)	-	3.55µM	35.5µM	-	-	-
COC(=O)c1ccc(N2C(=O)CC(N(C)Cc3ccccc3)C2=O)cc1 (stereo not given)	?	8.91µM	?	-	-	-
CN(Cc1ccncc1)C1CC(=O)N(c2ccc(F)cc2)C1=O (stereo not given)	-	17.8µM	-	-	-	.
COc1ccc(CN(C(=S)Nc2ccccc2)C2CC(=O)N(c3ccc(Cl)cc3)C2=O)cc1 (stereo not given)	-	7.08µM	-[12.7 µM]	-	-	?
COc1cccc(NC(=O)c2ccccc2N2C(=O)C3C4C=CC(C5CC45)C3C2=O)c1 (stereo not given)	-	.	-	.	-	.
Oc1ccc(O)c2c1C1c3ccccc3C2c2ccccc21	50.1µM	.	3.55µM	.	-	.
COc1ccc(-c2nc3ccccc3c(=O)n2CC(C)C)cc1	?	.	?	.	-	.
O=C(/C=C/c1ccncc1)c1ccc2c(c1)OCCO2	-	0.891µM	50.1µM	-	?	.
